Test results from BindingDB's records for patent US20240270732 (Chengdu Biobel Biotechnology Co., 2024).

Target: T1, Receptor-interacting serine/threonine-protein kinase 1 (Homo sapiens, UniProt Q13546)
T1 sequence (Q13546 whole entry): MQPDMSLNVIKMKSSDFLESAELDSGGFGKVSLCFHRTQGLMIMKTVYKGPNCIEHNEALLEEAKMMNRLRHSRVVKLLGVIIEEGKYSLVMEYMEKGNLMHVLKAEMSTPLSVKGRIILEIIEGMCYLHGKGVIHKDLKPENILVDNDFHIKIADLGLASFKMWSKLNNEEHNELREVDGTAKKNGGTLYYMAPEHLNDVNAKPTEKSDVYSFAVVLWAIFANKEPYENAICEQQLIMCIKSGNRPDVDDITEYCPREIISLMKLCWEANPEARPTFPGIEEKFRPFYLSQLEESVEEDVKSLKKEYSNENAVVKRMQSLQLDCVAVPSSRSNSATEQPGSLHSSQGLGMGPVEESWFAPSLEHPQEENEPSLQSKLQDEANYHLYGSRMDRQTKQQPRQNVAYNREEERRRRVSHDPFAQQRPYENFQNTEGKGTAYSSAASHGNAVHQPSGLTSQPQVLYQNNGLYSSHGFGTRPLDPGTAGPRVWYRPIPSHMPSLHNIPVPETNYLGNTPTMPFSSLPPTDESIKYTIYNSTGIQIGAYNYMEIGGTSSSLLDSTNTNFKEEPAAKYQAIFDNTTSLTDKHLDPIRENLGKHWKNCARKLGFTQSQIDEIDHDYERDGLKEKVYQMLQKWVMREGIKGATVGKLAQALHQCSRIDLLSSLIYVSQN
Assay: Inhibitory Activity Assay
Protocol: The compound of the present invention and the control compound were dissolved in the assay buffer (50 mM Hepes pH 7.5, 50 mM NaCl, 30 mM MgCl2, 1 mM DTT, 0.02% CHAPS, 0.5 mg/mL BSA), and diluted in a ratio of 1:1.5 using a 22-point titration (high concentration 2 μM), and then added to a 384-well plate. […] After completion of the reaction, 5 μL of ADP-Glo reagent containing 0.02% CHAPS was added to each well and incubated at room temperature for 1 h to terminate the kinase reaction and use up all remaining ATP. Then, 5 μL of ADP-Glo detection solution containing 0.02% CHAPS was added to each well and incubated at room temperature for 30 min to measure the emittance intensity.

| SMILES | IC50 |
| --- | --- |
| C[C@H]1Oc2ccc(C#CCOCCOCCOCCOCCOCC#Cc3ccc4c(c3)N(C)C(=O)[C@@H](NC(=O)c3n[nH]c(Cc5ccccc5)n3)[C@@H](C)O4)cc2N(C)C(=O)[C@H]1NC(=O)c1n[nH]c(Cc2ccccc2)n1 [US20240270732, Compound I-81-1] | 7.79 nM |
| C#CCOCCOCCOCCOCCOCC#Cc1ccc2c(c1)N(C)C(=O)[C@@H](NC(=O)c1n[nH]c(Cc3ccccc3)n1)[C@@H](C)O2 [US20240270732, Compound I-81-2] | 9.08 nM |
